Laboratory results published in patent US20260048100A1.

Biological target: receptor of IL-15 on the target cell (Mo7e cells)
Experiment: cell-based or functional assay

LIC23 fusion protein after cleavage by MMP
EC50, Mo7e cell proliferation (CCK-8): 125 nM
